Common to all, as to assay type: functional
Assay [1] relates to Pseudomonas aeruginosa. The assay is described as follows: Selectivity ratio of IC50 for efflux pump lacking Pseudomonas aeruginosa to IC50 for efflux pump lacking/OM pore producing Pseudomonas aeruginosa. The gist of the method:
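OM impact ratio (E/PE) is the M9-MOPS growth IC50 in the efflux-lacking strain divided by that in the efflux-lacking/pore-producing strain. Any IC50 >100 for the efflux-lacking or pore strain was set to 100 before computing.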

For assay [2], the system named is Pseudomonas aeruginosa. The assay is described as follows: Selectivity ratio of IC50 for OM pore producing Pseudomonas aeruginosa to IC50 for efflux pump lacking/OM pore producing Pseudomonas aeruginosa. The gist of the method: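 Efflux impact ratio (P/PE) is the M9-MOPS growth IC50 in the pore-producing strain divided by that in the efflux-lacking/pore-producing strain. Any IC50 >100 for the efflux-lacking or pore strain was set to 100 before computing.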

Assay [3] has as its system Staphylococcus aureus. The assay is described as follows: Antibacterial activity against Staphylococcus aureus ATCC 25923 incubated for 24 hrs by twofold serial dilution method. The gist of the method:
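MICs by twofold serial dilution in 96-well plates from 10 mM DMSO stocks. Cultures grown in the indicated media; for E. coli, A. baumannii and P. aeruginosa, inducers were 0.1% arabinose, 1% arabinose and 0.1 mM IPTG respectively.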

In brackets after ≈: the same amount, converted by molar mass. Some results are limits rather than exact numbers.

Take `O=C1O[C@@H](CO)CN1c1ccc(-c2ccc(C(F)(F)F)cc2)c(F)c1`: the Ratio IC50 in assay [1] was 6; in assay [2], above 72.

For the compound `NCc1ccc(-c2ccc(N3C[C@H](CO)OC3=O)cc2F)cc1O`, the MIC in assay [3] came to 12.5 µM (≈ 4.15 µg/mL). The results for the Ratio IC50 in assay [1] and in assay [2] were 14 and 259, respectively.

`O=C1O[C@@H](CO)CN1c1ccc(-c2ccc(SC(F)(F)F)cc2)c(F)c1`: the Ratio IC50 was 11 in assay [1] and above 14 in assay [2].

Regarding `O=C1O[C@@H](CO)CN1c1ccc(-c2ccncc2)c(F)c1`, the Ratio IC50 in assay [2] amounted to 16.

As for `O=C1O[C@@H](CO)CN1c1ccc(-c2cc[n+](Cc3ccccc3)cc2)c(F)c1`, the Ratio IC50 in assay [2] is 38.

`COc1ccc(-c2ccc(N3C[C@H](CO)OC3=O)cc2F)cc1`: in assay [2], the Ratio IC50 was above 82.

Take `O=C1O[C@@H](CO)CN1c1ccc(C#Cc2cc(Cl)cc(Cl)c2)c(F)c1`: the Ratio IC50 in assay [2] is above 6.

For `O=C1O[C@@H](CO)CN1c1ccc(-c2ccc3ccncc3c2)c(F)c1`, the figures for the Ratio IC50 in assay [1] and in assay [2] were above 1110 and above 1130, respectively.

Regarding `O=C1O[C@@H](CO)CN1c1ccc(-c2ccc3c(c2)OCO3)c(F)c1`, the Ratio IC50 in assay [1] was 7; in assay [2] it was above 309.

Turning to `O=C1O[C@@H](CO)CN1c1ccc(-c2ccc(F)cc2)c(F)c1`, the Ratio IC50 in assay [2] is 40.

Turning to `O=C1O[C@@H](CO)CN1c1ccc(-c2cccnc2)c(F)c1`, the Ratio IC50 in assay [2] was 12.

Regarding `O=C(O)c1ccc(-c2ccc(N3C[C@H](CO)OC3=O)cc2F)cc1`, the results for the Ratio IC50 in assay [1] and in assay [2] were above 112 and above 11, respectively.

Turning to `N/C(=N/O)c1ccc(-c2ccc(N3C[C@H](CO)OC3=O)cc2F)cc1`, the Ratio IC50 in assay [2] is 36.

`C[n+]1ccc(-c2ccc(N3C[C@H](CO)OC3=O)cc2F)cc1`: the Ratio IC50 in assay [1] turned out to be 5; in assay [2], 6.

As to `C[n+]1ccccc1-c1ccc(-c2ccc(N3C[C@H](CO)OC3=O)cc2F)cc1`, the Ratio IC50 came out at 7 in assay [1] and 13 in assay [2].

On to `Cc1ccc(-c2ccc(N3C[C@H](CO)OC3=O)cc2F)cc1`, for which the Ratio IC50 in assay [2] is above 26.

As for `O=C1O[C@@H](CO)CN1c1ccc(-c2ccc(OC(F)(F)F)cc2)c(F)c1`, the Ratio IC50 in assay [1] came out at 6.

As to `O=C1O[C@@H](CO)CN1c1ccc(-c2cccc(CO)c2)c(F)c1`, the Ratio IC50 in assay [2] is above 8.

As to `O=C1O[C@@H](CO)CN1c1ccc(-c2ccc(CO)cc2)c(F)c1`, the Ratio IC50 in assay [2] was above 18.

Regarding `O=C1O[C@@H](CO)CN1c1ccc(-c2ccc(-c3ccncc3)cc2)c(F)c1`, the Ratio IC50 was 92 in assay [1] and above 104 in assay [2].

Take `O=C1O[C@@H](CO)CN1c1ccc(-c2ccccc2)c(F)c1`: the Ratio IC50 in assay [2] is 9.

For the compound `O=Cc1ccc(-c2ccc(N3C[C@H](CO)OC3=O)cc2F)cc1`, the Ratio IC50 in assay [1] is 49; in assay [2] it was above 254.

For the compound `CC(C)c1ccc(-c2ccc(N3C[C@H](CO)OC3=O)cc2F)c(C(C)C)c1`, the Ratio IC50 in assay [2] worked out at 309.
